{
  "source": "patent US20080008652A1",
  "about": "“Methods and compositions for mediation of immune responses and adjuvant activity” (The Regents of the University of Michigan, priority 2006, published 2008)",
  "system": "BMDM",
  "assay": "Cooperation of low-dose LPS with microbial ligands for IL-1β secretion",
  "type": "cell-based, mouse",
  "conditions": "WT BMDM; 10 ng ml−1 LPS and 10 ng ml−1 ligand; 24 h",
  "protocol": "Measurements of cytokines. BMDM and peritoneal macrophages were prepared as previously described. Cells were stimulated with various microbial and synthetic ligands for 24 h and the supernatants were analyzed for IL-1β, IL-18, TNFα and IL-6 secretion. The following ligand concentrations were used: FLS-1, Pam3CSKKK4, LPS, lipoteichoic acid, lipid A and MDP were used at 1 μg ml^−1. For analysis of cooperation of LPS with various ligands, 10 ng ml^−1 of LPS and 10 ng ml^−1 of various ligands were used. In some experiments, the macrophages were stimulated with ligands for 16 h and then with medium containing 2 mM ATP (Sigma) for 30 min, washed, and cultured for an additional 5 h. Mouse cytokines were measured in culture supernatants with enzyme-linked immunoabsorbent assay (ELISA) kits (R and D Systems, Minneapolis, Minn.).",
  "data": [
    {"smiles": "CC(C)Cn1cnc2c(N)nc3ccccc3c21", "note": "[R837, Imiquimod]", "values": [
      {"measurement": "synergy with LPS for the secretion of IL-1β", "value": "synergized"}
    ]}
  ]
}
